The source of these data is patent US8772197B2, “Compositions for chemical and biological defense” (dated 2014).

Series [1] in a line: Hydrolysis of p-nitrophenyl acetate (UV/Vis, 404 nm).
The nature of series [2]: Ethyl-paraoxon hydrolysis by hydroxamic acid nucleophiles (UV/Vis).
Series [3] can be described thus: Methyl-paraoxon hydrolysis by hydroxamic acid nucleophiles (UV/Vis).
Series [4] can be described thus: Spontaneous hydrolysis of methyl-paraoxon (31P NMR). Conditions: for Kinetic constant, Reaction on methoxide / Kinetic constant, Reaction on p-nitrophenol: spontaneous hydrolysis.
For series [5] the following is noted: cited from earlier work.
For series [6] the following is noted: cited from earlier work. The source holds these as a separate data set.

≈ marks a conversion by molar mass, not a printed value.

In the case of `CC(=O)NO`, the “reactivity difference between AHA and PHA” value in series [1] (hydrolysis of p-nitrophenyl acetate) was 4; in series [2] (hydrolysis of ethyl-paraoxon), 17; in series [3] (hydrolysis of methyl-paraoxon) it was 14. The “Second order kinetic constant of hydrolysis of ethyl-paraoxon” value in series [2] (pH 9) came out at 0.0075 M⁻¹ s⁻¹. For the same compound, the “Second order kinetic constant of hydrolysis of methyl-paraoxon” value in series [3] (pH 9) was found to be 0.025 M⁻¹ s⁻¹.

For `COP(=O)(OC)Oc1ccc([N+](=O)[O-])cc1`, in series [4] (pH = 8, 50 mM Tris buffer), the “Kinetic constant, Reaction on methoxide” value worked out at 4.2e-07 s⁻¹ and the “Kinetic constant, Reaction on p-nitrophenol” value is 1.1e-07 s⁻¹. Moreover, in series [4] (pH = 10.6, 50 mM CAPS buffer), the “Kinetic constant, Reaction on methoxide” value is 1.4e-06 s⁻¹ and the “Kinetic constant, Reaction on p-nitrophenol” value came out at 9.3e-06 s⁻¹. The “increase of kinetic constant of reaction on p-nitrophenol groups” value in series [4] (solution pH from 8 to 10.6) is recorded as 85 times.

With `CCOP(=S)(OCC)Oc1ncc(Cl)c(Cl)c1Cl`, the solubility in water in series [5] is 2 µg/mL (≈ 5.7 µM).

As for `N/C(C/C(N)=N/O)=N\O`, the “second-order kinetic constant kcat of PNPA hydrolysis” value in series [1] (pH 8, 50 mM Tris, 25° C., based on molar amidoxime concentration, [PNPA]0=0.25 mM particles, 0.05 mM malonohydroxamamide) came to 0.046 M⁻¹ s⁻¹.

Turning to `O=C(O)c1ccccc1I(=O)=O`, in series [6], the pKa was 2.4. In addition, the “solubility in most organic solvents (except DMSO)” value in series [5] (r.t.) is listed as “insoluble”.

As a reminder, the pKa is the pH at which an ionisable group is half protonated.
